Source: PubChem BioAssay (NCI)
Where “and” joins values, the source holds several entries; their conditions need not be identical. Equal entries are not always repeated. This is a selection; strong and weak results do not stand in their true shares.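 Negative percent growth values reflect cell death: -40 means 40% of the cells present at the start died, and -100 means all died.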 Calls of active or inactive are those of the source. The calls were made as follows: active = growth percent below 10; inactive = the rest.

How the values were obtained:
Test in all cases: NCI-60 one-dose screen, 48 h (100 = growth as untreated, 0 = no growth, -100 = all killed)
Settings in all cases: 10 µM
[1] = tested on: DU-145 prostate
[2] = tested on: K-562 leukemia
[3] = tested on: MALME-3M melanoma
[4] = tested on: MDA-MB-231 breast
[5] = tested on: RXF 393 renal
[6] = tested on: SF-268 CNS
[7] = tested on: SF-295 CNS
[8] = tested on: SF-539 CNS
[9] = tested on: UACC-257 melanoma
[10] = tested on: M14 melanoma
[11] = tested on: HCT-15 colon
[12] = tested on: HT29 colon
[13] = tested on: SNB-75 CNS
[14] = tested on: SNB-19 CNS
[15] = tested on: PC-3 prostate
[16] = tested on: SK-MEL-5 melanoma
[17] = tested on: UACC-62 melanoma
[18] = tested on: LOX IMVI melanoma
[19] = tested on: SK-MEL-28 melanoma
[20] = tested on: U251 CNS

Measured: growth

OCC#CCN(CCCl)CCCl
inactive: [1] 102% | [2] 87.4% | [3] 89.5% | [4] 104% | [5] 89.2% | [6] 92.3% | [7] 96.3% | [8] 98.8% | [9] 96.7% | [10] 102% | [11] 108% | [12] 105% | [13] 92.4% | [14] 109% | [15] 88.5% | [16] 97.1% | [17] 87.1% | [18] 73.5% | [19] 111%

Cc1ccc2oc(=O)cc(CN(CCCl)CCCl)c2c1
inactive: [1] 98.7% | [2] 113% | [3] 107% | [4] 95.5% | [5] 86.5% | [6] 91.4% | [7] 102% | [8] 97.5% | [9] 92% | [10] 98.1% | [11] 89.4% | [12] 91.3% | [13] 75.3% | [14] 96.1% | [20] 96.7% | [15] 84.5% | [16] 95.1% | [17] 83% | [18] 95.7% | [19] 101%

CCC(C)(C)c1ccc(O)c(CN(CCCl)CCCl)c1
inactive: [1] 108% | [2] 106% | [3] 109% | [4] 119% | [5] 110% | [6] 96.7% | [7] 107% | [8] 96.8% | [9] 101% | [10] 89.1% | [11] 101% | [12] 110% | [13] 96.1% | [14] 99% | [20] 102% | [15] 96.2% | [16] 105% | [17] 103% | [18] 95.5% | [19] 109%

ClCCN(CCCl)Cc1ccc2c(c1)OCO2
inactive: [1] 102% | [2] 89.4% | [3] 100% | [4] 78.5% | [5] 83.5% | [6] 82.8% | [7] 98.2% | [8] 66.7% | [9] 91.9% | [10] 89.2% | [11] 86.2% | [12] 77.3% | [13] 72.9% | [14] 90% | [20] 67.2% | [15] 68.7% | [16] 82.8% | [17] 68.7% | [18] 71.1% | [19] 105%

ClCCSC(SCCCl)=C(SCCCl)SCCCl
inactive: [1] 72.3% | [2] 94.2% | [3] 87.2% | [5] 93.5% | [7] 65.8% | [8] 69.9% | [9] 105% | [10] 82.1% | [11] 81.5% | [12] 100% | [13] 93.6% | [20] 83.6% | [15] 73.2% | [16] 88.7% | [17] 52.3% | [18] 57.4% | [19] 98.3%

O/N=C/c1ccc(N(CCCl)CCCl)cc1
inactive: [1] 110% | [2] 97.8% | [3] 105% | [4] 110% | [6] 97.3% | [7] 72.6% | [8] 93.2% | [9] 79.9% | [10] 102% | [11] 92.7% | [12] 87.2% | [13] 70.4% | [14] 104% | [15] 93% | [16] 102% | [17] 83.6% | [18] 87.8% | [19] 105%

c1ccc(CN2CCC(Nc3ccccc3)CC2)cc1
inactive: [1] 113% | [3] 102% | [4] 92.8% | [5] 102% | [6] 116% | [7] 97.2% | [8] 104% | [9] 146% | [10] 106% | [11] 107% | [12] 103% | [13] 97.8% | [14] 104% | [20] 102% | [15] 91.4% | [16] 104% | [17] 96.8% | [18] 104% | [19] 107%

NC(Cc1cccc(N(CCCl)CCCl)c1)C(=O)O (configuration not stated)
inactive: [1] 104% and 106% | [2] 120% and 104% | [3] 88.9% and 87.7% | [4] 90.1% and 94.4% | [5] 83.3% and 97.8% | [6] 91.2% and 94.6% | [8] 99.1% and 100% | [9] 101% and 98.5% | [10] 110% and 94.6% | [11] 104% and 101% | [12] 102% and 104% | [13] 99.7% and 80% | [14] 96% and 111% | [20] 98.1% and 93.8% | [15] 84.8% and 88.2% | [16] 87.5% and 92.7% | [17] 87.7% and 89.4% | [18] 89% and 88.9% | [19] 107% and 101%

ClCCN(CCCl)CCc1ccccc1
inactive: [1] 109% | [2] 101% | [3] 120% | [4] 81.1% | [5] 119% | [6] 105% | [7] 125% | [8] 95.6% | [9] 93.1% | [10] 106% | [11] 116% | [12] 101% | [13] 99.2% | [14] 92% | [20] 100% | [15] 102% | [16] 105% | [17] 83.2% | [18] 101% | [19] 98.2%

CC(=O)N(c1ccccc1)C1CCNCC1
inactive: [1] 130% | [2] 110% | [4] 113% | [5] 111% | [6] 123% | [7] 103% | [8] 105% | [9] 120% | [10] 116% | [11] 109% | [12] 102% | [13] 86.3% | [14] 113% | [20] 107% | [15] 110% | [16] 109% | [17] 112% | [19] 107%

CCOC(=O)c1ccc(N(CCCl)CCCl)cc1
inactive: [1] 116% | [2] 86.6% | [3] 109% | [4] 108% | [5] 108% | [6] 109% | [7] 99.2% | [8] 97.3% | [9] 97.8% | [10] 106% | [11] 94.4% | [12] 104% | [13] 99.6% | [14] 103% | [15] 85.3% | [16] 100% | [17] 95.8% | [18] 101% | [19] 99.3%

COc1cc(N(CCCl)CCCl)cc(OC)c1OC
inactive: [1] 102% | [2] 96.6% | [3] 99.2% | [4] 86.3% | [6] 84.7% | [7] 94.8% | [8] 92.8% | [10] 97.5% | [11] 93.2% | [12] 88.3% | [13] 113% | [14] 98.3% | [20] 80.2% | [15] 72.5% | [16] 90.7% | [17] 87.5% | [18] 83.7% | [19] 113%

BrCCN(CCBr)CCCN(CCBr)CCBr
inactive: [1] 106% | [2] 103% | [3] 93.3% | [4] 115% | [5] 105% | [6] 94.2% | [7] 96.9% | [8] 104% | [9] 94.8% | [10] 97.2% | [11] 97.4% | [12] 105% | [13] 88.4% | [14] 118% | [15] 98.3% | [16] 100% | [17] 105% | [18] 91.1% | [19] 112%

Cc1cc(O)c(CN(CC(C)Cl)CC(C)Cl)cc1C (configuration not stated)
inactive: [1] 113% | [3] 101% | [4] 110% | [5] 122% | [6] 100% | [7] 100% | [8] 97.2% | [9] 108% | [10] 102% | [11] 109% | [12] 99.9% | [13] 87.2% | [14] 112% | [20] 111% | [15] 120% | [16] 110% | [17] 111% | [18] 97.7% | [19] 105%

O=C1C(=O)N(CN(CCCl)CCCl)c2ccccc21
inactive: [1] 111% | [2] 88.3% | [3] 99.7% | [4] 103% | [5] 116% | [6] 104% | [8] 101% | [9] 112% | [10] 97.5% | [11] 96.7% | [12] 100% | [13] 89.3% | [14] 109% | [20] 98.1% | [15] 95.9% | [16] 105% | [17] 100% | [18] 96.6% | [19] 115%

Cc1ccc(S(=O)(=O)CN(CCBr)CCBr)cc1
inactive: [1] 118% | [2] 112% | [3] 118% | [4] 115% | [6] 108% | [7] 91% | [8] 100% | [9] 80.1% | [10] 99.4% | [11] 101% | [12] 98.2% | [13] 69.9% | [14] 102% | [15] 102% | [16] 103% | [17] 100% | [18] 91.7% | [19] 113%
